The source of these data is ChEMBL document CHEMBL1124123, “Graphics computer-aided receptor mapping as a predictive tool for drug design: development of potent, selective, and stereospecific ligands for the 5-HT1A receptor” (J Med Chem, 1988).

The chains behind the UniProt entries cited, without tags or fusion partners.
UniProt P28564, whole entry: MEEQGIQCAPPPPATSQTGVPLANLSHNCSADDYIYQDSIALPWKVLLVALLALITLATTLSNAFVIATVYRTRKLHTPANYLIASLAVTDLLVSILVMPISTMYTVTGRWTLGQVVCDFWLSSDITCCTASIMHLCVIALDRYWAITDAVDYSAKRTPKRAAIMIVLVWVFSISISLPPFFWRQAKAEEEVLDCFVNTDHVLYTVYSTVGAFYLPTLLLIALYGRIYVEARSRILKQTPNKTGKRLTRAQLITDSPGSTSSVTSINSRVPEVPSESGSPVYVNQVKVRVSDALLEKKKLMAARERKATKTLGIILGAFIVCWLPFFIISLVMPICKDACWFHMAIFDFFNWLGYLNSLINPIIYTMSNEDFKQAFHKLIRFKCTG

For orientation: IC50 means the concentration at which inhibition is half-maximal.

For the test, the target named is 5-hydroxytryptamine receptor 1B (Rattus norvegicus, UniProt P28564). Put plainly: Binding affinity against 5-HT1B receptor in rat frontal cortex using [3H]-5-HT in presence of 0.1 uM […]. Type of test: tissue-based.

The structures appear in SMILES notation.

In the case of `CCCN(CCC)C1CCc2cccc(O)c2C1` (stereo unspecified) [8-OH-DPAT], the IC50 is 3.8 µM.
